Earlier results in patent publication US8344017B2, “Anti-hepatitis C virus agents and anti-HIV agents” (Mitsubishi Corporation, priority 2003, dated 2013).

Sequences of proteins named here, by UniProt entry; tags and fusion partners are left off. Residues count along the entry.
UniProt P27958, 2421-3011: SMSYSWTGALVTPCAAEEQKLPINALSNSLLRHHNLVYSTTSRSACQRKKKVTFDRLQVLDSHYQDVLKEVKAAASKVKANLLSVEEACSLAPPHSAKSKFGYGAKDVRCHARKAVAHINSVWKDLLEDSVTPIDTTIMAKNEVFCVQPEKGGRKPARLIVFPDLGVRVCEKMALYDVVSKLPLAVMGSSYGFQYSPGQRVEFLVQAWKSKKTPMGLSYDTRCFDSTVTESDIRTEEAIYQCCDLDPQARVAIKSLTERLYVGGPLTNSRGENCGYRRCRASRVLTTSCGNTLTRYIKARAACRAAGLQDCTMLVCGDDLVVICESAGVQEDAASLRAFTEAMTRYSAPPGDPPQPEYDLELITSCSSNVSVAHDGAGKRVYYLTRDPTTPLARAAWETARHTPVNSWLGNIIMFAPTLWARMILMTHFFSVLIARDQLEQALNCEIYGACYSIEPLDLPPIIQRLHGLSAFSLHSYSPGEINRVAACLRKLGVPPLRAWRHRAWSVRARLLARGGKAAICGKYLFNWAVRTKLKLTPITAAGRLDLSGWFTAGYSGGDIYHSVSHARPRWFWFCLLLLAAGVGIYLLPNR

Target: RNA polymerase of hepatitis C virus (Hepatitis C virus genotype 1a, UniProt P27958)
Conditions: read-out: 50% inhibition concentration, reported by D. Dhanak et al., J. Biol. Chem. 2002; cited from earlier work

For `CC(C)CCn1c(=O)c(C2=NS(=O)(=O)c3ccccc3N2)c(O)c2ccccc21`, the pIC50 is given as 7.10.

pIC50: −log10 of the molar value.
